A short description of one data set: solubility. Format: physicochemical. Particulars: Table 3, not marked MeOD. How it is done:
TPP in benzene or chloroform with OD 0.5-0.7 was used as blank/solvent solution to produce singlet oxygen. The intensity of ^1O2 luminescence signals was measured at 532 nm excitation in air-saturated solutions with a liquid nitrogen cooled germanium photodiode at 1268 nm. 0.02-0.5 mL quencher stock solution of Ir(III) complexes in […] was added to the blank solution. The decay trace of singlet oxygen was then re-measured, and the additions repeated 6-10 times. Singlet oxygen quenching rate constants by the Ir(III) complexes were obtained from the slopes of Stern Volmer plots (See FIG. 7).

For data set [1] the following is noted: from references (footnote e); cited from earlier work.

With “iridium(III) bis(2-phenylbenzothiazolato-N, C^2)pyridyl chloride [BT-py]”, the “solubility remark” value in “solubility” is “Not soluble”. The “ΦPE quantum efficiency for emission in solution” value in data set [1] is recorded as 0.2.

(Values after patent publication US7368570B2, “Organometallic complexes as singlet oxygen sensitizers” (University of Southern California, priority 2003, dated 2008).)
